The record followed here is patent US9340577B2, “HLA binding motifs and peptides and their uses” (priority 1992, dated 2016).

As a reminder, the IC50 is the concentration that inhibits the measured activity by half.

The target in the first assay is A*6801 (Homo sapiens, UniProt P04439, A269V/D185E/E176V/E277Q/E87N/F33Y/G231S/I121M/I166T/I218V/L180W/L300P/L318F/N151K/P208A/P217A/Q86R/R169H/T345S). Description: biochemical. Format: binding.
For the molecule `CC[C@H](C)[C@H](NC(=O)[C@H](CCC(=O)O)NC(=O)[C@@H](NC(=O)[C@H](CC(C)C)NC(=O)[C@H](CO)NC(=O)[C@H](CCCNC(=N)N)NC(=O)[C@@H](NC(=O)[C@@H](N)CCC(N)=O)[C@@H](C)O)[C@@H](C)O)C(=O)N[C@@H](CC(C)C)C(=O)N[C@@H](CCCCN)C(=O)O` [Peptide 9012.0217], the IC50 turned out to be 297 nM.

For the molecule `CC[C@H](C)[C@H](NC(=O)CNC(=O)[C@H](Cc1ccccc1)NC(=O)[C@@H](NC(=O)[C@H](CC(C)C)NC(=O)CN)C(C)C)C(=O)N[C@@H](CC(C)C)C(=O)N[C@H](C(=O)N[C@@H](CCCCN)C(=O)N[C@@H](CCCNC(=N)N)C(=O)O)[C@@H](C)CC` [Peptide 9012.0244], the IC50 came out at 183 nM. `CC[C@H](C)[C@H](NC(=O)[C@H](CS)NC(=O)[C@H](CCCNC(=N)N)NC(=O)[C@@H](NC(=O)[C@@H](N)CC(C)C)[C@@H](C)CC)C(=O)N[C@H](C(=O)N[C@@H](CS)C(=O)N[C@@H](CCC(N)=O)C(=O)N[C@@H](CCCCN)C(=O)O)[C@@H](C)CC` [Peptide 88.0298] yielded an IC50 of 285 nM. As to `CC[C@H](C)[C@H](N)C(=O)N[C@H](C(=O)N[C@@H](Cc1ccc(O)cc1)C(=O)N[C@@H](CCCNC(=N)N)C(=O)N[C@@H](CC(=O)O)C(=O)N[C@@H](CC(N)=O)C(=O)N[C@@H](CC(N)=O)C(=O)N1CCC[C@H]1C(=O)N[C@@H](Cc1ccc(O)cc1)C(=O)O)C(C)C` [Peptide 78.0292], the IC50 is 33 nM. The molecule `CC(C)[C@H](NC(=O)CNC(=O)[C@H](CO)NC(=O)[C@H](CS)NC(=O)[C@@H](NC(=O)[C@@H](N)CCCCN)C(C)C)C(=O)N[C@@H](CC(=O)O)C(=O)N[C@@H](Cc1ccc(O)cc1)C(=O)N[C@@H](CCCNC(=N)N)C(=O)O` [Peptide 1589.35] gave a half-inhibitory concentration (IC50) of 13600 nM. In turn, `CC(C)C[C@H](NC(=O)[C@H](C)NC(=O)CNC(=O)[C@H](CC(C)C)NC(=O)[C@@H](N)Cc1ccccc1)C(=O)N[C@@H](CCCCN)C(=O)N[C@@H](CO)C(=O)N[C@@H](Cc1ccccc1)C(=O)N[C@@H](CC(C)C)C(=O)N[C@@H](CCCCN)C(=O)O` [Peptide 88.0148] came in with an IC50 of 1390 nM.

In the next assay the target is HLA-A1 (A*0101) (Homo sapiens, UniProt P04439, A114D/A174V/A182V/D101N/D185E/E176A/E190D/L180R/Q94H/R68K/S129P/T187R/V100A/V91M/W191G). As to the kind of experiment: biochemical.
Molecule `CC[C@H](C)[C@H](NC(=O)[C@H](CCC(N)=O)NC(=O)[C@H](CC(=O)O)NC(=O)[C@H](CO)NC(=O)[C@@H](N)CC(=O)O)C(=O)N[C@@H](CC(C)C)C(=O)N[C@H](C(=O)NCC(=O)N[C@@H](Cc1ccc(O)cc1)C(=O)O)C(C)C` [Peptide 1593.12] came in with an IC50 of 183 nM.

Molecule `CC[C@H](C)[C@H](NC(=O)[C@H](CCCCN)NC(=O)[C@H](CC(=O)O)NC(=O)[C@@H](NC(=O)[C@@H](N)CC(C)C)[C@@H](C)O)C(=O)N[C@H](C(=O)N[C@@H](CC(=O)O)C(=O)N[C@@H](Cc1c[nH]cn1)C(=O)N[C@@H](Cc1ccc(O)cc1)C(=O)O)[C@@H](C)CC` [Peptide 1593.09] displayed an IC50 of 195 nM. Molecule `CC(C)C[C@H](NC(=O)CNC(=O)[C@H](CCCNC(=N)N)NC(=O)[C@H](Cc1c[nH]cn1)NC(=O)[C@H](CO)NC(=O)[C@@H](NC(=O)[C@H](CS)NC(=O)[C@@H](NC(=O)[C@H](C)N)[C@@H](C)O)C(C)C)C(=O)N[C@@H](Cc1ccc(O)cc1)C(=O)O` [Peptide 1580.22] gave an IC50 of 421 nM.

For the next assay, the target named is A*3301 (Homo sapiens, UniProt P04439, A270S/D185E/E176V/E277Q/E87N/F33T/G231S/H175R/I121M/I218V/I322F/K168Q/K210R/L300P/L318F/M331R/P217A/Q86R/Q94H/R138Q/T323A/T345S/T97I/V358M/Y195H). As to the kind of experiment: biochemical. Format: binding.
`CC[C@H](C)[C@H](NC(=O)[C@H](Cc1ccc(O)cc1)NC(=O)[C@@H](NC(=O)[C@@H](NC(=O)[C@@H](NC(=O)[C@@H](N)Cc1c[nH]c2ccccc12)[C@@H](C)O)[C@@H](C)CC)C(C)C)C(=O)N[C@@H](CCC(=O)O)C(=O)N[C@@H](Cc1ccc(O)cc1)C(=O)N[C@@H](CCCNC(=N)N)C(=O)N[C@@H](CCCCN)C(=O)O` [Peptide 9017.0243] came in with an IC50 of 3510 nM. In turn, `CC[C@H](C)[C@H](NC(=O)[C@H](Cc1c[nH]c2ccccc12)NC(=O)[C@H](CCC(N)=O)NC(=O)[C@H](CO)NC(=O)[C@H](CCSC)NC(=O)[C@H](CO)NC(=O)[C@H](CCSC)NC(=O)[C@H](CCC(N)=O)NC(=O)[C@@H](N)CCCCN)C(=O)N[C@@H](CCCCN)C(=O)O` [Peptide 1587.09] yielded an IC50 of 11400 nM.

The next assay concerns the target HLA-A11 (A*1101) (Homo sapiens, UniProt P04439, A114D/D185E/E176A/F33Y/L180Q/S129P/T187R). As to the kind of experiment: biochemical. Format: binding.
In turn, `C[C@H](NC(=O)[C@H](CC(N)=O)NC(=O)[C@@H](NC(=O)[C@@H](N)CC(N)=O)[C@@H](C)O)C(=O)NCC(=O)N[C@H](C(=O)N[C@@H](CC(=O)O)C(=O)N1CCC[C@H]1C(=O)N[C@@H](CCCNC(=N)N)C(=O)O)[C@@H](C)O` [Peptide 88.0372] displayed a half-inhibitory concentration (IC50) of 1020 nM. With `CSCC[C@H](NC(=O)[C@H](Cc1c[nH]cn1)NC(=O)[C@H](Cc1c[nH]cn1)NC(=O)[C@H](CCCCN)NC(=O)[C@@H](NC(=O)[C@@H](N)CC(C)C)C(C)C)C(=O)N[C@@H](Cc1ccc(O)cc1)C(=O)N[C@H](C(=O)N[C@@H](CO)C(=O)N[C@@H](CCCCN)C(=O)O)C(C)C` [Peptide 9017.0216], 184 nM corresponded to half-maximal inhibition (IC50).

`CC(C)C[C@H](NC(=O)[C@H](CC(C)C)NC(=O)[C@H](Cc1c[nH]cn1)NC(=O)[C@H](CC(C)C)NC(=O)[C@@H](NC(=O)[C@H](CCC(N)=O)NC(=O)[C@H](C)N)C(C)C)C(=O)N[C@@H](CCCCN)C(=O)N[C@@H](CCCNC(=N)N)C(=O)O` [Peptide 88.0364] registered an IC50 of 285 nM. Still for that read-out and setting: with `CSCC[C@H](NC(=O)CNC(=O)CNC(=O)[C@H](CCSC)NC(=O)[C@H](CS)NC(=O)[C@@H](NC(=O)[C@@H](N)CO)C(C)C)C(=O)N[C@@H](CC(N)=O)C(=O)N[C@@H](CCCNC(=N)N)C(=O)O` [Peptide 1556.60] the figure was 17 nM; with `CC[C@H](C)[C@H](NC(=O)[C@H](CC(C)C)NC(=O)[C@H](C)NC(=O)[C@@H](NC(=O)[C@H](CC(C)C)NC(=O)[C@H](C)NC(=O)[C@H](CC(C)C)NC(=O)[C@@H](N)Cc1ccc(O)cc1)[C@@H](C)O)C(=O)N[C@@H](CCCCN)C(=O)O` [Peptide 9017.0097], 3040 nM; with `CC[C@H](C)[C@H](NC(=O)[C@H](Cc1ccc(O)cc1)NC(=O)[C@@H](NC(=O)[C@@H](NC(=O)[C@@H](NC(=O)[C@@H](N)Cc1c[nH]c2ccccc12)[C@@H](C)O)[C@@H](C)CC)C(C)C)C(=O)N[C@@H](CCC(=O)O)C(=O)N[C@@H](Cc1ccc(O)cc1)C(=O)N[C@@H](CCCNC(=N)N)C(=O)O` [Peptide 9017.0117], 1510 nM.

Consider `CC[C@H](C)[C@H](NC(=O)[C@H](CCC(N)=O)NC(=O)[C@@H](NC(=O)[C@H](C)NC(=O)[C@H](CO)NC(=O)[C@@H](NC(=O)[C@@H](N)[C@@H](C)O)C(C)C)[C@@H](C)O)C(=O)N[C@H](C(=O)N[C@@H](CCCNC(=N)N)C(=O)O)C(C)C` [Peptide 1589.26], for which the IC50 is 183 nM.

In another assay the target is HLA-A3.2 (A*0301) (Homo sapiens, UniProt P04439). As to the kind of experiment: biochemical. Format: binding.
In turn, `CC(C)[C@H](NC(=O)[C@H](CCC(=O)O)NC(=O)[C@@H](NC(=O)[C@@H](N)CCCNC(=N)N)[C@@H](C)O)C(=O)N[C@@H](Cc1ccc(O)cc1)C(=O)N[C@@H](CCC(N)=O)C(=O)N[C@@H](Cc1ccccc1)C(=O)N[C@@H](C)C(=O)N[C@@H](Cc1ccccc1)C(=O)N[C@@H](CCCCN)C(=O)O` [Peptide 78.0062] displayed a 50% inhibitory concentration (IC50) of 285 nM. Turning to `CC[C@H](C)[C@H](NC(=O)CNC(=O)[C@H](Cc1ccccc1)NC(=O)[C@@H](NC(=O)[C@H](CC(C)C)NC(=O)CN)C(C)C)C(=O)N[C@@H](CC(C)C)C(=O)N[C@H](C(=O)N[C@@H](CCCCN)C(=O)N[C@@H](CCCNC(=N)N)C(=O)O)[C@@H](C)CC` [Peptide 9012.0244], half-maximal inhibition (IC50) required 3510 nM. Consider `CC[C@H](C)[C@H](NC(=O)CNC(=O)[C@H](CCCCN)NC(=O)[C@H](CS)NC(=O)[C@H](CC(N)=O)NC(=O)[C@@H](NC(=O)[C@H](CCC(N)=O)NC(=O)CN)C(C)C)C(=O)N[C@@H](Cc1ccc(O)cc1)C(=O)N[C@@H](Cc1ccc(O)cc1)C(=O)O` [Peptide 88.0209], for which the IC50 stood at 1020 nM. Consider `CC[C@H](C)[C@H](N)C(=O)N[C@H](C(=O)N[C@H](C(=O)N[C@@H](CCCCN)C(=O)N[C@@H](CCCNC(=N)N)C(=O)N[C@@H](CCCNC(=N)N)C(=O)N[C@@H](CCC(N)=O)C(=O)N[C@@H](CCC(N)=O)C(=O)N[C@@H](CCCCN)C(=O)O)[C@@H](C)CC)C(C)C` [Peptide 9012.0206], for which it took 198 nM to reach half-maximal inhibition (IC50).

In turn, `CC(C)C[C@H](N)C(=O)N[C@@H](CCC(N)=O)C(=O)N[C@@H](Cc1c[nH]cn1)C(=O)N[C@@H](C)C(=O)N[C@@H](CO)C(=O)N[C@H](C(=O)N[C@@H](CO)C(=O)N[C@H](C(=O)N1CCC[C@H]1C(=O)N[C@@H](CCCCN)C(=O)O)[C@@H](C)O)[C@@H](C)O` [Peptide 88.0224] gave an IC50 of 19 nM.

For `CSCC[C@H](NC(=O)[C@@H](NC(=O)[C@@H](N)CC(N)=O)[C@@H](C)O)C(=O)N[C@@H](Cc1c[nH]cn1)C(=O)N[C@@H](Cc1ccc(O)cc1)C(=O)N[C@H](C(=O)N[C@@H](CC(N)=O)C(=O)N[C@@H](Cc1c[nH]c2ccccc12)C(=O)N[C@@H](CCCCN)C(=O)O)[C@@H](C)O` [Peptide 1589.16], the IC50 amounted to 1020 nM. Consider `CC[C@H](C)[C@H](NC(=O)[C@H](CC(C)C)NC(=O)[C@H](Cc1c[nH]c2ccccc12)NC(=O)[C@H](CC(=O)O)NC(=O)[C@@H](NC(=O)[C@H](CCCCN)NC(=O)[C@H](CCCNC(=N)N)NC(=O)[C@H](CCC(N)=O)NC(=O)[C@@H](N)CCCNC(=N)N)[C@@H](C)CC)C(=O)N[C@@H](CCCCN)C(=O)O` [Peptide 9017.0247], for which inhibition was half-maximal at 198 nM (IC50).

The molecule `CC[C@H](C)[C@H](NC(=O)[C@H](CCC(N)=O)NC(=O)[C@@H](N)CCCCN)C(=O)N[C@H](C(=O)N[C@@H](CCSC)C(=O)N[C@@H](Cc1ccccc1)C(=O)N[C@@H](CC(C)C)C(=O)N[C@@H](CCCNC(=N)N)C(=O)N[C@@H](Cc1ccc(O)cc1)C(=O)O)C(C)C` [Peptide 88.0330] showed an IC50 of 138 nM. `CSCC[C@H](NC(=O)[C@H](CCC(N)=O)NC(=O)[C@H](CCC(N)=O)NC(=O)[C@@H](N)CCC(N)=O)C(=O)N[C@@H](Cc1ccccc1)C(=O)N[C@@H](CC(C)C)C(=O)NCC(=O)N[C@H](C(=O)N[C@H](C(=O)N[C@@H](CCCCN)C(=O)O)C(C)C)[C@@H](C)O` [Peptide 88.0219] had an IC50 of 1020 nM.
